Results from patent US9850225B2, “Compounds useful as immunomodulators” (BRISTOL-MYERS SQUIBB COMPANY, priority 2014, dated 2017).
pIC50: −log10 of the molar value. Like-named read-outs stand apart in the source and are kept apart here.

Protein sequences, listed by entry. Tags and fused reporters are not part of them. Chains listed by the source or under a name are the forms on record and can include a tag or linker. Residues count along the entry.
UniProt Q9NZQ7, 18-239 with tags or gaps limits assumed: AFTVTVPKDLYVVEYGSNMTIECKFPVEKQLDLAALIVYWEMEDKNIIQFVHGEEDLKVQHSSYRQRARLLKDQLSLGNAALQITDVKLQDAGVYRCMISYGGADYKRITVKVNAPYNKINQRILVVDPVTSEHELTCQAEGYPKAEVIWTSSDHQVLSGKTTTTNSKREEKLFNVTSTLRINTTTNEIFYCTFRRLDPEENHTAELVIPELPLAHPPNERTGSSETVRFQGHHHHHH

Biological target: PD-1/PD-L1 interaction (PD-1-Ig / PD-L1-His) (Homo sapiens (Human), UniProt Q9NZQ7)
Assay: PD-1/PD-L1 Homogenous Time-Resolved Fluorescence (HTRF) binding assay
Settings: read-out: Range or IC50
[1] = PD-1/PD-L1 HTRF binding assay, value given as range class

Structure (SMILES)	pIC50 [1]	pIC50
Cc1c(COc2cc(OCc3cncc(C#N)c3)c(CN3CC(O)C(O)[C@H]3C(=O)O)cc2Cl)cccc1-c1ccc2c(c1)OCCO2 (single isomer, unassigned)	8.00 to 9.22	–
CC(=O)NCCNCc1ccc(OCc2cccc(-c3ccccc3)c2C)cc1OCc1cccc(C(F)(F)F)c1F	4.70 to 7.00	–
CC(=O)NCCNCc1ccc(OCc2cccc(-c3ccccc3)c2C)cc1OCc1cc(C)on1	–	4.70 to 7.00
